Reference: ChEMBL document CHEMBL4177766, “Targeting a Subpocket in Trypanosoma brucei Phosphodiesterase B1 (TbrPDEB1) Enables the Structure-Based Discovery of Selective Inhibitors with Trypanocidal Activity” (J Med Chem, 2018)

Experiment: Selectivity ratio of Ki for full length recombinant human PDE4B1 to Ki for full length Trypanosoma brucei PDEB1
`COc1ccc(C2=NN(C3CCCCCC3)C(=O)[C@H]3CC=CC[C@@H]23)cc1-c1ccc(C(=O)NCC(N)=O)cc1` showed a Ratio Ki of 13. `COc1ccc(C2=NN(C3CCCCCC3)C(=O)[C@@H]3CC=CC[C@H]23)cc1-c1ccc(C(=O)NCC(N)=O)cc1` gave a Ratio Ki of 16. `COc1ccc(C2=NN(C(C)C)C(=O)[C@@H]3CC=CC[C@H]23)cc1-c1ccc(C(=O)NCC(N)=O)cc1` (relative stereo) gave a Ratio Ki of 19. `COc1ccc(C2=NN(C3CCCCCC3)C(=O)[C@@H]3CC=CC[C@H]23)cc1-c1ccc(C(=O)NCC(N)=O)cc1` (relative stereo) gave a Ratio Ki of 10.
